This is an account of results in ChEMBL document CHEMBL1144808 (J Med Chem, 2008).

Data set [1] relates to NCI-H460. Briefly: Cytotoxicity against human H460 cells under hypoxic condition after 2 hrs by Alamar blue staining assay.
The subject of data set [2] is NCI-H460. Briefly: Cytotoxicity against human H460 cells under normoxic condition after 2 hrs by Alamar blue staining assay.
The test system of data set [3] is NCI-H460. In words: Ratio of IC50 for human H460 cells under normoxic condition to hypoxic condition by Alamar blue staining assay.
For the next data set, the system named is Liver. In words: Metabolic stability in mouse liver microsomes at 5 uM after 30 mins. The note with it: 0.5 h. The class given is ADME, Microsome.

Take `NP(=O)(OCc1ccc([N+](=O)[O-])o1)N(CCBr)CCBr` (centres undefined): the half-maximal inhibitory concentration (IC50) with NCI-H460 [1] was 0.26 µM; in the data set on NCI-H460 [2], 15 µM. Also, the Ratio IC50 in the data set on NCI-H460 [3] was 58. Moreover, in the data set with Liver, the Stability turned out to be 68%.
